Test results reported in patent US20250171404A1, “PCNA INHIBITORS AND USES THEREOF” (CITY OF HOPE, priority 2022, published 2025).

Tested on: SK-N-AS cells heterozygous or homozygous of the mutant PCNA allele (L47V)
Assay: Growth of PCNA L47V mutant cell lines (CRISPR)
Conditions: compared to wildtype parent SK-N-AS cells; 72 hrs

SMILES: COc1cccc(Oc2ccccc2NC(=O)CNC(=O)c2cccc3ccccc23)c1 [AOH1996, N-(2-((2-(3-methoxyphenoxy)phenyl)amino)-2-oxoethyl)-1-naphthamide]
- sensitivity of L47V PCNA mutant cell lines to growth inhibition: less sensitive to growth inhibition by AOH1996
